Apparent affinities of Ab-95 variants for a coronavirus HR2 peptide

Target: peptide PDVDLGDISGINAS, taken from heptad repeat 2 (HR2) of SARS-CoV-2 spike.

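The starting antibody came from a phage panning campaign against this peptide. In library AAYL52, one, two or three CDR residues were substituted; doubles and triples were drawn at random. AlphaSeq pools MATa yeast showing the antibodies with MATalpha yeast showing the peptide. Mating (16 h, 30 °C) was followed by selection of diploids and sequencing of their barcodes. The ratio of observed to expected reads was calibrated, replicate by replicate, on BCL2-family standards whose Kd was known from biolayer interferometry. Each pool was mated in three replicate cultures.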

Parent scFv Ab-95: VH joined to VL by three GGGGS repeats. Changes lie in the light chain CDRs alone.
VH: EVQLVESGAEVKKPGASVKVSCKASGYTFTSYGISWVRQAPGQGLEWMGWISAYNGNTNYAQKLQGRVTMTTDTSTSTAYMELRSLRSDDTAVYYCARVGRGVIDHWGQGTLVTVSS
VL: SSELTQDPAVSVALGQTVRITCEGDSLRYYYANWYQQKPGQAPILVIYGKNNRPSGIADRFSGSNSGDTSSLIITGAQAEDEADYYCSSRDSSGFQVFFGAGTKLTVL

Each variant is given by its three light chain CDRs, as the data file delimits them; those of the parent are EGDSLRYYYAN, GKNNRPS, SSRDSSGFQVF.
Numbers give log10(Kd / nM), so 0 is 1 nM and 3 is 1 µM. Smaller is tighter.
"n.d." marks a missing value. The strain was present, yet no cells mated with the target were sequenced in that replicate, which points to weak or no binding.

| # | CDR-L1 | CDR-L2 | CDR-L3 | log10 Kd, replicates | signal with controls |
|---|---|---|---|---|---|
| 1 | EADSLRYYYAE | GKNNRPS | SSRDSSGYQVF | 3.65 / 4.06 / 2.83 | 2 of 9 (3.20) |
| 2 | EGDMLRYYYAY | GKNNQPS | SSRDSSGFQVF | 3.01 / n.d. / 4.28 | 4 of 9 (3.31) |
| 3 | EGSSLIYYYAN | GKNQRPS | SSRDSSGFQVF | 2.77 / 2.61 / 3.68 | 3 of 9 (3.46) |
| 4 | EEDSLRYYYAN | GKNNRPS | SSRDFDGFQVF | 4.88 / 3.03 / n.d. | 2 of 9 (3.63) |
| 5 | ECDSLDYYYAN | GKNNRPS | SKRDSSGFQVF | 2.80 / 3.13 / 2.28 | 1 of 9 (3.40) |
| 6 | EGDSLRYYYAN | GKNNGVS | SSRDSSGFQVN | n.d. / n.d. / n.d. | 1 of 9 (3.88) |
| 7 | EGDSLDYYYAN | GKNNRPS | SSADSSGFAVF | 3.29 / 3.13 / 2.69 | 3 of 9 (4.19) |
| 8 | EGDSLRYYVAN | GKNNRPS | ISRDSPGFQVF | 4.72 / n.d. / 4.19 | 3 of 9 (4.89) |
| 9 | EKDSLRYYYAN | GKYNRPS | SSRDSSGFQLF | 4.19 / n.d. / n.d. | 1 of 9 (4.20) |
| 10 | EGFSLRYYYAN | GKNPRPS | SSPDSSGFQVF | 3.98 / n.d. / n.d. | 3 of 9 (3.86) |
| 11 | EGDSLRAYYAM | GKNNRPW | SSRDSSGFQVF | 3.79 / n.d. / n.d. | 2 of 9 (4.39) |
| 12 | EGDNLSYYYAN | GKNNRPS | SSRDSSGFQVF | n.d. / 4.34 / 3.00 | 2 of 9 (3.06) |
| 13 | EGDSLTYYYAN | GKNNFHS | SSRDSSGFQVF | 3.50 / n.d. / n.d. | 3 of 9 (3.76) |
| 14 | SGDSLRYYYAN | GKENRPS | SSRDSSGIQVF | 4.25 / n.d. / 2.83 | 0 of 9 |
| 15 | QGDSLRYYYAN | GKNNRPS | FSRDKSGFQVF | 3.76 / 4.64 / 3.99 | 1 of 9 (5.71) |
| 16 | EGDSLRYYYAN | GKNNPPS | SSRDSSGFQFP | 5.43 / n.d. / n.d. | 3 of 9 (3.51) |
| 17 | EGDSLRYYYAN | GKNIRPS | NSRESSGFQVF | n.d. / n.d. / n.d. | 1 of 9 (3.31) |
| 18 | EVDSLRYYYAN | GKNNRGS | SSRDSSGDQVF | 2.19 / 2.24 / 2.00 | 6 of 9 (4.06) |
| 19 | EGDSIRYYYAN | GKNNRPS | SSRDSGGFQVF | 2.47 / 2.69 / 3.54 | 4 of 9 (3.36) |
| 20 | EGDSLLYYYAN | GKNNRPS | SERDSSGFQRF | 2.40 / 2.21 / 1.74 | 2 of 9 (3.17) |
| 21 | YSDSLRYYYAN | GKNNRPS | FSRDSSGFQVF | 3.55 / 3.21 / 2.27 | 0 of 9 |
| 22 | EGDSRRYYYAN | GTNNRPW | SSRDSSGFQVF | 4.33 / 5.35 / 3.48 | 2 of 9 (4.07) |
| 23 | EGDSLRYYYAN | PKNNRPS | SSRDSSGFIVF | 4.02 / n.d. / n.d. | 2 of 9 (3.71) |
| 24 | EGDSLRYYQAN | GKNNRPE | SSADSSGFQVF | 1.68 / 1.50 / 1.20 | 5 of 9 (3.54) |
| 25 | EKDSLRYYYAN | GKAHRPS | SSRDSSGFQVF | 2.44 / 2.34 / 2.49 | 5 of 9 (4.10) |
| 26 | EGCYLRYYYAN | GKCNRPS | SSRDSSGFQVF | 4.31 / 4.12 / 3.71 | 4 of 9 (3.95) |
| 27 | EGDSLRYYRGN | GKCNRPS | SSRDSSGFQVF | 4.19 / 4.42 / n.d. | 5 of 9 (3.74) |
| 28 | EGDSLRYYMAN | GKNFRPS | SSRDSSGFFVF | 2.98 / 2.29 / 3.95 | 1 of 9 (3.21) |
| 29 | EFDSLREYYAN | GWNNRPS | SSRDSSGFQVF | 4.20 / n.d. / n.d. | 2 of 9 (3.27) |
| 30 | EGDSGRYYYAN | GKNNKPM | SSRDSSGFQVF | n.d. / n.d. / n.d. | 3 of 9 (3.67) |

4 of these entries, quoted again:

{"CDR-L1": "EKDSLRYYYAN", "CDR-L2": "GKAHRPS", "CDR-L3": "SSRDSSGFQVF", "log10 Kd, replicates": "2.44 / 2.34 / 2.49", "signal with controls": "5 of 9 (4.10)"}
{"CDR-L1": "EGDSGRYYYAN", "CDR-L2": "GKNNKPM", "CDR-L3": "SSRDSSGFQVF", "log10 Kd, replicates": "n.d. / n.d. / n.d.", "signal with controls": "3 of 9 (3.67)"}
{"CDR-L1": "EGDSLRYYYAN", "CDR-L2": "PKNNRPS", "CDR-L3": "SSRDSSGFIVF", "log10 Kd, replicates": "4.02 / n.d. / n.d.", "signal with controls": "2 of 9 (3.71)"}
{"CDR-L1": "EGDSLRYYYAN", "CDR-L2": "GKNNGVS", "CDR-L3": "SSRDSSGFQVN", "log10 Kd, replicates": "n.d. / n.d. / n.d.", "signal with controls": "1 of 9 (3.88)"}

In this assay the parent's reference entry averaged 2.31; its copy inside this library read 2.25.
Nonspecific signal, from three strains lacking the peptide, appeared in 28% of pairings of library AAYL52, centred on 3.91 (5% of these signals below 2.90); values are not corrected for it. For each scFv, signals with the empty controls are counted beside the result, with their mean in brackets.

Reference: Engelhart et al. 2022, doi:10.1038/s41597-022-01779-4. File: FLAb, binding data.